Melting point values, as collected for the OPERA models

The melting point is given in degrees Celsius.
"via" names the databases from which the curators took the value.

CCOC(=O)C1(c2ccccc2)CCN(CCOCC2CCCO2)CC1 (stereo not given) is reported with melting point 28 °C (via OCHEM).
O=C(NCNC(=O)NC1C(=O)NC(=O)N1CO)NC1C(=O)NC(=O)N1CO (stereo not given) [Imidazolidinyl urea] is reported with melting point 240.2 °C (via OCHEM, eChemPortal).
O=C(CCl)c1ccc(Cl)cc1Cl [2,2',4'-Trichloroacetophenone] is reported with melting point 53.81 °C (via OCHEM, PubChem).
Clc1cccc(Cl)c1C(Cl)Cl is reported with melting point 25.5 °C (via eChemPortal).
Cc1cccc(NC(=O)CCl)c1 [2-chloro-N-(3-methylphenyl)acetamide] is reported with melting point 129 °C (via OCHEM).
Cc1coc2c1CCC(C)C2 (stereo not given) [Menthofuran] is reported with melting point 86 °C (via OCHEM).
CC(C)(C)c1cc(-c2cc(C(C)(C)C)cc(C(C)(C)C)c2Op2oc3ccccc3c3ccccc3o2)c(Op2oc3ccccc3c3ccccc3o2)c(C(C)(C)C)c1 is reported with melting point 233 °C (via eChemPortal).
C[C@@H]1C[C@H]2CC(=O)[C@H]3CCCN4CCC[C@H]2[C@]34C1 [Lycopodine] is reported with melting point 114 °C (via OCHEM).
COc1ccc2[nH]cc(C3=CCNCC3)c2c1 is reported with melting point 182 °C (via OCHEM).
c1ccc2sc(C3CCNCC3)nc2c1 [2-(4-piperidinyl)-1,3-benzothiazole] is reported with melting point 128 °C (via OCHEM).
Cc1csc(NC(=O)CCl)n1 [2-chloro-N-(4-methyl-1,3-thiazol-2-yl)acetamide] is reported with melting point 128 °C (via OCHEM).
Cc1ccccc1-n1c(Cl)nc2ccccc2c1=O [2-Chloro-3-(2-methylphenyl)quinazolin-4(3H)-one] is reported with melting point 299 °C (via OCHEM).
NC(=O)c1ccc(CCl)cc1 [4-(Chloromethyl)benzamide] is reported with melting point 179 °C (via OCHEM).
CCC(=O)C(CC(C)N(C)C)(c1ccccc1)c1ccccc1.Cl (stereo not given) [Methadone hydrochloride] is reported with melting point 235 °C (via OCHEM).
CC(C)=NN(c1ccccc1)P(=O)(N1CC1)N1CC1 is reported with melting point 120 °C (via OCHEM).
ON=Cc1ccc2c(c1)OCO2 [N-[(2H-1,3-Benzodioxol-5-yl)methylidene]hydroxylamine] is reported with melting point 115 °C (via OCHEM).
N[C@@H](C[SeH])C(=O)O [L-Selenocysteine] is reported with melting point 144.5 °C (via PubChem).
Cc1ccccc1NC(=O)CCl [Acetamide, 2-chloro-N-(2-methylphenyl)-] is reported with melting point 76 °C (via OCHEM).
NCC(O)c1ccc(F)cc1 (stereo not given) [2-amino-1-(4-fluorophenyl)ethanol] is reported with melting point 66 °C (via OCHEM).
NN=C(N)N.O=P(O)(O)O [Carbazamidine phosphate] is reported with melting point 125.8 °C (via eChemPortal).
Clc1cnc(N2CCNCC2)c(Cl)c1 [1-(3,5-Dichloro-2-pyridyl)piperazine] is reported with melting point 60 °C (via OCHEM).
Clc1ccc(-c2cc(Cl)ccc2Cl)cc1 [2,4',5-Trichlorobiphenyl] is reported with melting point 67 °C (via QSARDB).
O=S(=O)(Cl)c1ccc(CBr)cc1 [4-(Bromomethyl)benzenesulfonyl chloride] is reported with melting point 73.5 °C (via OCHEM).
CN(CCCCCC(=O)O)S(=O)(=O)c1ccccc1.OCCN(CCO)CCO is reported with melting point 35.9 °C (via eChemPortal).
Fc1cc(CBr)ccc1Cl [4-Chloro-3-fluorobenzyl bromide] is reported with melting point 31.5 °C (via OCHEM).
COC(=O)c1occc1CBr [methyl 3-(bromomethyl)-2-furoate] is reported with melting point 51 °C (via OCHEM).
O=[N+]([O-])C=Cc1c(Cl)cccc1Cl [1,3-Dichloro-2-(2-nitroethenyl)benzene] is reported with melting point 64.5 °C (via OCHEM).
Clc1ccc(-c2ccc(Cl)c(Cl)c2)cc1Cl is reported with melting point 180 °C (via QSARDB).
CCC(C)OC(N)=O (stereo not given) [Carbamic acid, 1-methylpropyl ester] is reported with melting point 63 °C (via QSARDB).
Clc1ccc(C(c2ccccc2Cl)C(Cl)(Cl)Cl)cc1 (stereo not given) [o,p'-DDT] is reported with melting point 74 °C (via QSARDB).
ClCc1cn2cccnc2n1 [2-(chloromethyl)imidazo[1,2-a]pyrimidine] is reported with melting point 126 °C (via OCHEM).
COc1ccc(F)cc1CCl [2-(chloromethyl)-4-fluoro-1-methoxybenzene] is reported with melting point 52.5 °C (via OCHEM).
Cc1nn(Cc2ccccc2)c(C)c1C=O [1-Benzyl-3,5-dimethyl-1H-pyrazole-4-carbaldehyde] is reported with melting point 73 °C (via OCHEM).
Cc1ccc(S(=O)(=O)O)cc1.Fc1ccc(C2=CCN(Cc3ccccc3)CC2)cc1 is reported with melting point 182 °C (via eChemPortal).
O=C(O)Cc1ccc([N+](=O)[O-])cc1[N+](=O)[O-] [Benzeneacetic acid, 2,4-dinitro-] is reported with melting point 172 °C (via OCHEM).
N#Cc1ccc(/C=C/C(=O)O)cc1 [(2E)-3-(4-Cyanophenyl)-2-propenoic acid] is reported with melting point 251 °C (via OCHEM).

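The numbers are reported measurements, compiled and curated for the OPERA QSAR suite. A listed value is a point estimate from one report or more. Method and conditions are not stated for these values. A value may pool stereoisomers or salt forms, and the file does not say which form was measured. Some entries may be limits or estimates that an upstream database listed as plain numbers.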

Source: data files of OPERA 2.9 (Mansouri et al.), github.com/kmansouri/OPERA.